Assay results: PubChem BioAssay AID1865 (National Center for Advancing Translational Sciences (NCATS), 2009)
Only a part is listed here, and it is no random draw. Active and inactive are the calls of the source. Calls come from the whole dose curve; as a rule, active = well fitted activation curve with a large enough effect; inconclusive = small, poorly fitted or top-dose-only effect; inactive = flat fitted curve, though single readings scatter.

experiment: Quantitative High-Throughput Screen for Regulators of Epigenetic Control; conditions: murine LDR cells, GFP reporter derepression, 30 h; at 53.9 µM (top of the series); note: % of control where 0% means no effect; nearly all actives have a fitted effect of over 60% in size
Excerpt: NIH Molecular Libraries Screening Centers Network [MLPCN] NIH Chemical Genomics Center [NCGC] MLSCN Grant: 1 X01 MH079860-01 Assay Provider: Elisabeth D. Martinez, University of Texas SW Medical Center NCGC Assay Overview: The Locus Derepression (LDR) assay detects the derepression or induction of a GFP reporter that is stably integrated in a genomic region of murine cells that is presumably silenced. Transcription of the GFP reporter is controlled by a CMV promoter, which normally is constitutively active. However, this cell line, termed LDR, was selected for lack of constitutive production of GFP. GFP production can be induced by incubating the cells with histone deacetylase or DNA methyltransferase inhibitors (Martinez et al., 2006). Compounds that derepress or induce this reporter locus are identified by enumerating GFP positive cells using a laser-scanning microplate cytometer (Auld et al., 2006). This assay was screened against the MLSMR earlier (AID 597; (Johnson et al., 2008) and has been rescreened here against the expanded collection.
NCGC Assay Protocol Summary: Three hundred LDR cells in 5 uL per well were dispensed into black, clear-bottom 1536-well plates. Twenty-three nL compound was transferred to the assay plate and cells were incubated 30 hours at 37 C. Medium was removed, cells were washed two times with PBS, and GFP-positive cells were enumerated as fluorescent objects between the sizes of 20 to 120 um width and depth using an Acumen Explorer. References Auld, DS, Johnson, RL, Zhang, YQ, Veith, H, Jadhav, A, Yasgar, A, Simeonov, A, Zheng, W, Martinez, ED, Westwick, JK, Austin, CP, Inglese, J (2006). Fluorescent protein-based cellular assays analyzed by laser-scanning microplate cytometry in 1536-well plate format. Methods Enzymol 414: 566-89. Johnson, RL, Huang, W, Jadhav, A, Austin, CP, Inglese, J, Martinez, ED (2008). A quantitative high-throughput screen identifies potential epigenetic modulators of gene expression. Anal Biochem 375: 237-48. Martinez, ED, Dull, AB, Beutler, JA, Hager, GL (2006). High-content fluorescence-based screening for epigenetic modulators. Methods Enzymol 414: 21-36.

**Q.** Which GFP activation does the source give for `N#Cc1ccc(C(=O)NCC2(N3CCCCC3)CCCCC2)cc1` here?
**A.** inactive: 5.19%

**Q.** Which GFP activation does the source give for `O=C(NCC1(N2CCOCC2)CCCCC1)c1ccccc1[N+](=O)[O-]` here?
**A.** inactive: 4.06%

**Q.** Which GFP activation does the source give for `CCOC(=O)C(CC)C1=NC(C)(C)Cc2ccccc21.O=[N+]([O-])c1cc([N+](=O)[O-])c(O)c([N+](=O)[O-])c1` (stereo unspecified) here?
**A.** inactive: 0.524%

**Q.** Which GFP activation does the source give for `O=C(NCC1(N2CCOCC2)CCCCC1)c1ccccc1` here?
**A.** inactive: -1.61%

**Q.** Which GFP activation does the source give for `c1ccc(CN2CCC(Nc3ccccc3)CC2)cc1` here?
**A.** inactive: 1.42%

**Q.** For `COc1ccc(C(=O)NCC2(N3CCOCC3)CCCCC2)cc1OC`, which GFP activation is on record?
**A.** inactive: 0.0725%

**Q.** Which GFP activation does the source give for `N/C(=N\O)c1c(N)no[n+]1[O-]` here?
**A.** inactive: -0.741%

**Q.** With `O=C(O)c1cccc(Nc2c([N+](=O)[O-])cc([N+](=O)[O-])cc2[N+](=O)[O-])c1` as the molecule, how does the GFP activation read?
**A.** inactive: 1.08%

**Q.** With `O=C(OC1CN2CCC1CC2)C1c2ccccc2C=Cc2ccccc21` (stereo unspecified) as the molecule, how does the GFP activation read?
**A.** inactive: -1.01%

**Q.** For `CCOc1ncccc1C(=O)NCC1(N2CCOCC2)CCCCC1`, which GFP activation is on record?
**A.** inactive: 0.952%

**Q.** With `CC(C)(C)OC(=O)N1CCC(Nc2ccccc2)CC1` as the molecule, how does the GFP activation read?
**A.** inactive: 1.73%

**Q.** With `CCC(CO)(C(=O)OC1CN2CCC1CC2)c1ccccc1` (stereo unspecified) as the molecule, how does the GFP activation read?
**A.** inactive: 7.32%

**Q.** Which GFP activation does the source give for `COc1cc(C(=O)NCC2(N3CCOCC3)CCCCC2)cc(OC)c1OC` here?
**A.** inactive: -2.39%

**Q.** With `COc1cc(OC)cc(C(=O)NCC2(N3CCOCC3)CCCCC2)c1` as the molecule, how does the GFP activation read?
**A.** inactive: -1.5%

**Q.** Which GFP activation does the source give for `CCCOc1ccc(C)cc1CN(CCCl)CCCl` here?
**A.** inactive: -0.222%

**Q.** Which GFP activation does the source give for `CN(C)C1(CNC(=O)c2ccc(C(C)(C)C)cc2)CCCCC1` here?
**A.** inactive: -1.61%

**Q.** With `Fc1ccccc1NC1CCN(Cc2ccccc2)CC1` as the molecule, how does the GFP activation read?
**A.** inactive: 1.22%

**Q.** With `CCN1CCC(Nc2cccc(F)c2)CC1` as the molecule, how does the GFP activation read?
**A.** inactive: 0.175%

**Q.** With `CN(C)c1ccc(C(=O)NCC2(N3CCCCC3)CCCCC2)cc1` as the molecule, how does the GFP activation read?
**A.** inactive: 2.19%

**Q.** For `CC(C)(C)c1ccc(C(=O)NCC2(N3CCOCC3)CCCCC2)cc1`, which GFP activation is on record?
**A.** inactive: -3.23%

**Q.** For `Cc1ccccc1C(=O)NCC1(N(C)C)CCCCC1`, which GFP activation is on record?
**A.** inactive: 2.45%
